Reference: patent US20170042860A1

Molecular target: RUMGNA_01526 (tryptophan decarboxylase from Ruminococcus gnavus ATCC 29149), one monomer of the homodimer (Ruminococcus gnavus ATCC 29149) (UniProt A7B1V0)
Experiment: X-ray crystal structure of RUMGNA_01526 at 2.8 A

Substance “RUMGNA_01526 (tryptophan decarboxylase from Ruminococcus gnavus ATCC 29149), one monomer of the homodimer (from UniProt A7B1V0 1-490) (enzyme)” has an area buried at the dimer interface of 4560 Å^2.
